# Source: patent US9593113B2, “Imide and acylurea derivatives as modulators of the glucocorticoid receptor” (BRISTOL-MYERS SQUIBB COMPANY, priority 2013, dated 2017)
# The chains behind the UniProt entries cited, without tags or fusion partners.
# UniProt P04150, whole entry: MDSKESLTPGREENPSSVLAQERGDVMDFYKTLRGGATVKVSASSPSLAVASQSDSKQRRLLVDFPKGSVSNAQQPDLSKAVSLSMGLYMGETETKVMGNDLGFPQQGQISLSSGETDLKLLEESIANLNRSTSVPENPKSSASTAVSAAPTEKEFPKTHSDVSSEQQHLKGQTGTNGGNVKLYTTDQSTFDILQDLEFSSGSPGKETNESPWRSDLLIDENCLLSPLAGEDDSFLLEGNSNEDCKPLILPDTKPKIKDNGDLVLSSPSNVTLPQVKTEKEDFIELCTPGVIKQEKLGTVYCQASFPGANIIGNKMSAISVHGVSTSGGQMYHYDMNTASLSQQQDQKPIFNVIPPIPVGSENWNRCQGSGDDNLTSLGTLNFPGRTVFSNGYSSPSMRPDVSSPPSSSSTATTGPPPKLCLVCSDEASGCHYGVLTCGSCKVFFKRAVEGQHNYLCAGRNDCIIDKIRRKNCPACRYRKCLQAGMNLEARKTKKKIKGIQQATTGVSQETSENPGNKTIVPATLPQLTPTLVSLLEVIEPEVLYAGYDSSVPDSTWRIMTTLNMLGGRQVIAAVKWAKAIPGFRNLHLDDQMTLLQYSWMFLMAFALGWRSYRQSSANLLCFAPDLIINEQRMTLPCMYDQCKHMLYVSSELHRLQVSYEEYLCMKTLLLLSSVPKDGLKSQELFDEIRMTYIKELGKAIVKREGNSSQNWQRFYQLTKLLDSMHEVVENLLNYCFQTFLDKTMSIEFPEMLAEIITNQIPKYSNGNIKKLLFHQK
# Read-outs that look alike come from different tables or passages of the source.
# Assays:
# [1] = test system: AP-1 induced transcriptional activity; assay: Cellular transrepressional assay (AP-1 luciferase reporter, PMA-activated A549 cell); assay type: cell-based; details: for EC50: read-out: AP-1 (EC50, nM) (measured in cellular transrepression assay)
# [2] = target: human full-length glucocorticoid receptor (Homo sapiens (Human), UniProt P04150); assay: Glucocorticoid Receptor Binding Assay (II), fluorescence polarization competitor kit; details: read-out: GR (Ki, nM) (measured in GR binding Assay II)
# [3] = A549 cell, 10 ng/ml PMA, 7 hours
Ki [2] [nM],"EC50 [1, 3] [nM]",SMILES,AP-1 Max % inhibition (measured in cellular transrepression assay) [1] [%],"AP-1 Max % inhibition (measured in cellular transrepression assay) [1, 3] [%]"
1.74,129,CC(C)(C(=O)NC(N)=O)[C@H]1c2ccccc2Oc2nc(-c3ccccc3)ccc21,–,29.97
0.84,29.1,CC(C)Oc1ccc(-c2ccc3c(n2)Oc2ccccc2[C@@H]3C(C)(C)C(=O)NC(N)=O)cc1F,–,59.56
1.71,12.8,CC(C)(C(=O)NC(N)=O)[C@H]1c2ccccc2Oc2nc(-c3ccc(-n4cnnn4)cc3)ccc21,–,42.41
–,19.9,CC(C)(C(=O)NC(N)=O)[C@H]1c2ccccc2Oc2nc(-c3ccc(N4CCOCC4)nc3)ccc21,–,43.00
–,18.9,CC(C)(C(=O)NC(N)=O)[C@@H]1c2ccc(-c3ccc(N4CCOCC4)nc3)nc2Oc2c(F)cccc21,–,54.62

# Second part, the compound before the results:
SMILES,Ki [2] [nM],"EC50 [1, 3] [nM]",AP-1 Max % inhibition (measured in cellular transrepression assay) [1] [%],"AP-1 Max % inhibition (measured in cellular transrepression assay) [1, 3] [%]"
CC(C)C(=O)NC(=O)C(C)(C)[C@@H]1c2ccc(-c3ccc(C(=O)N4CCOCC4)cc3)nc2Oc2c(F)cccc21,–,–,42.52,–
CC(C)(C(=O)NC(=O)C1CC1)[C@@H]1c2ccc(-c3ccc(C(=O)N4CCOCC4)cc3)nc2Oc2c(F)cccc21,–,–,–,53.92
CC(C)(C(=O)NC(N)=O)[C@@H]1c2ccc(-c3ccccc3)nc2Oc2c(F)cccc21,0.92,19.2,–,48.53
CC(C)(C(=O)NC(=O)C1CCC1)[C@@H]1c2ccc(-c3ccc(C(=O)N4CCOCC4)cc3)nc2Oc2c(F)cccc21,–,18.3,–,46.14
